In the assay the target is Gamma-aminobutyric acid receptor subunit alpha-4 (Homo sapiens, UniProt P48169).

Protein sequences, listed by entry. Tags and fused reporters are not part of them.
UniProt P48169, whole entry: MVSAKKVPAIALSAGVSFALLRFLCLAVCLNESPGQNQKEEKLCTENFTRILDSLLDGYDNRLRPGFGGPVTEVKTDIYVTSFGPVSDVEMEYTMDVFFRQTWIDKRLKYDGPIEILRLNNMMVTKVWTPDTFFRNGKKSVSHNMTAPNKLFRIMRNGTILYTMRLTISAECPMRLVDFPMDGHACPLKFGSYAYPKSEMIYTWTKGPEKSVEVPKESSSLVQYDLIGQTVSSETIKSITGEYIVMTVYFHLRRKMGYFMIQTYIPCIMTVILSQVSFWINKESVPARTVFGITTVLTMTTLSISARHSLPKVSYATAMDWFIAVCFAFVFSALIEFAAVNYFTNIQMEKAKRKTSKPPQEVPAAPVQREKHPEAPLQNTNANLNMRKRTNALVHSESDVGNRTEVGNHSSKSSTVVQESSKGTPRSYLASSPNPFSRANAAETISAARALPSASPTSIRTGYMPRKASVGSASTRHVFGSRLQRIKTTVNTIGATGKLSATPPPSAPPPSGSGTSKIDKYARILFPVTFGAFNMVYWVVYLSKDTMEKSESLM

Values joined by “and” are separate entries in the source; they are usually repeats but may differ in a detail not shown here. Equal entries are not always repeated.

One may read the Ki as a dissociation constant, usually derived from enzyme kinetics or from competition with a known ligand.

The compound `CCOC(=O)c1cc2c(cn1)[nH]c1ccccc12` yielded a Ki of 693 nM.
For the compound `CCOC(=O)c1ncn2c1CN(C)C(=O)c1cc(N=[N+]=[N-])ccc1-2` [RO-154513], the inhibition constant Ki was 5.5 nM and 10.5 nM.
